Data: patent publication US20180079912A1, “ANTIFOULING MATERIALS” (priority 2013, published 2018)

experiment: Coating thickness by ellipsometry (Cauchy model); type: physicochemical; settings: Cauchy film model
Description: The thickness of the peptide-based coating was measured using α-SE spectroscopic ellipsometer (J. A. Woollam, Lincoln, Nebr., USA). […] The thickness of the layers and refractive indices were fitted according to the Cauchy model. The coefficients of the Cauchy equation were initially fixed for organic layers (An=1.45, Bn=0.01 and Cn=0), and an angle offset was permitted. Then, the parameters were allowed to be fitted to determine more accurate values.

Point of comparison: “NH2-L-DOPA-L(4F)-Phe(2)-L(4F)-Phe(3)-COOMe [Peptide 1]”, “thickness of the coating by ellipsometry” value 3.41±0.05 nm. Against it:
- NH2-L-DOPA-D-(4F)Phe(2)-L-(4F)Phe(3)-COOMe [Peptide 3] — within error, 3.48±0.03 nm
- NH2-L-DOPA-D-(4F)Phe(2)-D-(4F)Phe(3)-COOMe [Peptide 4] — within error, 3.36±0.05 nm
- NH2-L-DOPA-L-(4F)Phe(2)-D-(4F)Phe(3)-COOMe [Peptide 2] — within error, 3.46±0.04 nm
